Test results: patent US9012603B2, “Peptides that block the binding of IgG to FcRn” (Biogen Idec Hemophilia Inc., priority 2006, dated 2015)
Read-outs that look alike come from different tables or passages of the source.

Sequences of proteins named here, by UniProt entry; tags and fusion partners are left off. Residues count along the entry.
UniProt P55899, 24-297: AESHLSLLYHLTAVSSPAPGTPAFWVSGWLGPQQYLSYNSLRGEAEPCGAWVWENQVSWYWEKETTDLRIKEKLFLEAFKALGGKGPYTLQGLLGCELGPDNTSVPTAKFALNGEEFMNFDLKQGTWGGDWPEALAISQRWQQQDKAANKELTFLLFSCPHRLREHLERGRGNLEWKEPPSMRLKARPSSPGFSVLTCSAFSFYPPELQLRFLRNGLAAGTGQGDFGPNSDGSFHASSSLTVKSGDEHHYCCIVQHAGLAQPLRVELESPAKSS

How the values were obtained:
[1] = biological target: soluble human FcRn (shFcRn) (Homo sapiens, UniProt P55899); experiment: Peptide-IgG competition ELISA; conditions: 3 nM human IgG, pH 6
[2] = biological target: soluble human FcRn (Homo sapiens, UniProt P55899); experiment: Equilibrium binding constants (KD) by surface plasmon resonance (Biacore)

Substance | IC50 [1] [µM] | Kd ([2]; read-out: KD (pH 6), pH 6) [µM] | Kd ([2]; read-out: KD pH 7.4, pH 7.4) [µM]
AGNSFCRGRPGHFGGCYLFGTGGGK [SEQ ID NO: 10] | 33 |  | 
QRF-Asp-TGHFGGLYP-Dab-NGP [Peptide No. 38] | 68 | 17 | 150
QRF-C-TGHFGGLYP-c-NGP [Peptide No. 30] |  | 31 | 
QRF-Pen-T-Sar-HFGGLYP-C-NGP [Peptide No. 108] | > 125 | 88 | 
QRF-Pen-TG-Dap(Guanyl)-FGGLYPCNGP [Peptide No. 297] | 54 | 13 | 16
QRF-Pen-TGH-(1-napthylalanine)-GGLYPCNGP [Peptide No. 61] | 13 | 2.2 | 
QRF-Pen-TGH-(4-MePhe)-GGLYPCNGP [Peptide No. 90] | 1.7 | 0.2 | 
QRF-Pen-TGH-(Cha)-GGLYPCNGP [Peptide No. 93] | 31 | 4.5 | 
QRF-Pen-TGHF-G-h-LYPCNGP [Peptide No. 42] | 12 | 2 | 20
QRF-Pen-TGHF-a-Sar-NMeLeu-YPCNGP [Peptide No. 188] | 6.5 | 0.73 | 
QRF-Pen-TGHF-i-G-LYPCNGP [Peptide No. 51] | 9.4 | 2.6 | 
QRF-Pen-TGHF-p-G-LYPCNGP [Peptide No. 48] | 5 | 0.79 | 21
QRF-Pen-TGHF-y-G-LYPCNGP [Peptide No. 53] | 3.2 | 0.32 | 
QRF-Pen-TGHFG-Sar-LYPCNGP [Peptide No. 112] | 0.9 |  | 
QRF-Pen-TGHFG-Sar-NMeLeu-YPCNGP [Peptide No. 187] | 0.42 | 0.046 | 0.23
QRF-Pen-TGHFG-Sar-W-YPCNGP [Peptide No. 238] | 1 | 0.068 | 
QRF-Pen-TGHFGG-M-YPCNGP [Peptide No. 117] | 7.7 | 0.44 | 
QRF-Pen-TGHFGGL-(2-pyridylAla)-PCNGP [Peptide No. 66] | > 125 |  | 
QRF-V-TGHF-G-p-LYP-W-NGP [Peptide No. 172] | 150 |  | 
QRFCTGHF-Apa-LYPCNGP [Peptide No. 35] | > 125 |  | 
QRFCTGHFGALYPCNGP [SEQ ID NO: 32] | > 125 |  | 
RF-Pen-TG-2PyridylAla-FG-Sar-NMeL-YPC [Peptide No. 249] | 6.2 | 0.33 | 0.41
RF-Pen-TG-Dab-FG-Sar-NMeL-YPC [Peptide No. 253] | 16 | 1.2 | 1.2
RF-Pen-TGFFG-Sar-NMeLeu-YPC [Peptide No. 265] | 27 | 3.3 | 4.2
RF-Pen-TGHF-q-Sar-NMeLeu-YPC [Peptide No. 245] | 4.5 | 0.36 | 
RF-Pen-TGHFG-Sar-NMeLeu-YPC [Peptide No. 235] | 0.49 |  | 
RF-Pen-TGHFGGLYPC [Peptide No. 99] | 2 | 0.17 | 3.4
